# Experimental data: ChEMBL document CHEMBL2218924, “A broad activity screen in support of a chemogenomic map for kinase signalling research and drug discovery” (Biochem J, 2013)
# Chains of the proteins cited; added tags and fusions are not shown. Lines headed by an entry give the natural chain unless they say otherwise; changes in a name come on top.
# UniProt Q9HCP0: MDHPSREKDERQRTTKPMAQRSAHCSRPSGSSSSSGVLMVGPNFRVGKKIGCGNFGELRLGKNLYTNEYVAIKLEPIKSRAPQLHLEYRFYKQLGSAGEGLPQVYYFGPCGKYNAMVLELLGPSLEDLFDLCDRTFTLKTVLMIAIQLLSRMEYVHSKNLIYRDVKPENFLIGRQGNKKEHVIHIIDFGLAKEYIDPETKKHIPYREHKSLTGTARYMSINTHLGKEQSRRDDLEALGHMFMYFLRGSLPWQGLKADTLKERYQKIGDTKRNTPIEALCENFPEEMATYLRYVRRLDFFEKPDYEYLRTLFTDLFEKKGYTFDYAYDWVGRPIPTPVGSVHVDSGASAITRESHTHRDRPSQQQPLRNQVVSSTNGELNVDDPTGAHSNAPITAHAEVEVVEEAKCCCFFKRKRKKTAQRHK
# UniProt O75676: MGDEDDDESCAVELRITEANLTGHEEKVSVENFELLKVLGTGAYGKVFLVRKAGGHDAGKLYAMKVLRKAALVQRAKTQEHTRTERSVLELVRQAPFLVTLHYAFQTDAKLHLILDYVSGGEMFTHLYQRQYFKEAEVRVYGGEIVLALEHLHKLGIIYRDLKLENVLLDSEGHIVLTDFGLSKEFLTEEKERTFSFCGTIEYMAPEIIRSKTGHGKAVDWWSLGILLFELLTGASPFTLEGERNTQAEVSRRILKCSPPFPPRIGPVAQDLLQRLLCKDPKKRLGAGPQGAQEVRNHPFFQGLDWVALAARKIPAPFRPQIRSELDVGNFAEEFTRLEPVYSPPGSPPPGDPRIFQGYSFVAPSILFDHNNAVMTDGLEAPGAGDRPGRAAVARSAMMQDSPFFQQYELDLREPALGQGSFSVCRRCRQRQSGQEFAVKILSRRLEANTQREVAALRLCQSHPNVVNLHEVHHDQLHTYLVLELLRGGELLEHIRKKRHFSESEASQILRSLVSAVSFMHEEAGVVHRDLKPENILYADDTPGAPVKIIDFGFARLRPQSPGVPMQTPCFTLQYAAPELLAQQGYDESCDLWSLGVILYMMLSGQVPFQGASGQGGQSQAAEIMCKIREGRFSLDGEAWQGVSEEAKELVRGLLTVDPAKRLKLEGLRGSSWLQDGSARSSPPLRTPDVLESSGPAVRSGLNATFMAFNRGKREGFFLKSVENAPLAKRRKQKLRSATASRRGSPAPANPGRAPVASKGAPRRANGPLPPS
# UniProt P20248, whole entry, looked up: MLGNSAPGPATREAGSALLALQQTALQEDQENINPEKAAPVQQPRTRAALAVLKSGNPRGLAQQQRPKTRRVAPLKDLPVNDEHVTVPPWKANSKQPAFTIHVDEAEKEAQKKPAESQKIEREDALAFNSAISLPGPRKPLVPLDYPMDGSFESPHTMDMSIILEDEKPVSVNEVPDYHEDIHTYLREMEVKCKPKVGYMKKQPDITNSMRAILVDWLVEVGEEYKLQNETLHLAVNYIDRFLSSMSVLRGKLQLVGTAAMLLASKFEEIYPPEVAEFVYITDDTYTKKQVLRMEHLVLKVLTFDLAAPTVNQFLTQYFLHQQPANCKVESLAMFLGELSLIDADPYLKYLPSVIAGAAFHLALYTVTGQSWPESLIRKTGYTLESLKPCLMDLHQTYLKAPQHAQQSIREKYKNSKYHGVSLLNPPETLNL
# UniProt P78396: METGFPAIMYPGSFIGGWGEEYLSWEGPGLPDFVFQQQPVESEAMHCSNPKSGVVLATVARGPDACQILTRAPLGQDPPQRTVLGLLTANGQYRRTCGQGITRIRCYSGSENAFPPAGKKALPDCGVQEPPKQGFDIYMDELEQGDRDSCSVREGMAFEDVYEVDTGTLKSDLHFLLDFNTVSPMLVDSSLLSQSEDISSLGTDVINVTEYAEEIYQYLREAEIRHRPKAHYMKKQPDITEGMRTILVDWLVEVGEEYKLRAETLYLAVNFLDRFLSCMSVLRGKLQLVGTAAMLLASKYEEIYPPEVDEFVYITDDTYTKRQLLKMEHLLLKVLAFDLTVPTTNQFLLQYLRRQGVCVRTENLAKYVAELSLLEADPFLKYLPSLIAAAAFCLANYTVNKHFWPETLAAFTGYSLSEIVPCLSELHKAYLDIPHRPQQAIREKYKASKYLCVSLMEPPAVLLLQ
# UniProt P21802, whole entry, looked up: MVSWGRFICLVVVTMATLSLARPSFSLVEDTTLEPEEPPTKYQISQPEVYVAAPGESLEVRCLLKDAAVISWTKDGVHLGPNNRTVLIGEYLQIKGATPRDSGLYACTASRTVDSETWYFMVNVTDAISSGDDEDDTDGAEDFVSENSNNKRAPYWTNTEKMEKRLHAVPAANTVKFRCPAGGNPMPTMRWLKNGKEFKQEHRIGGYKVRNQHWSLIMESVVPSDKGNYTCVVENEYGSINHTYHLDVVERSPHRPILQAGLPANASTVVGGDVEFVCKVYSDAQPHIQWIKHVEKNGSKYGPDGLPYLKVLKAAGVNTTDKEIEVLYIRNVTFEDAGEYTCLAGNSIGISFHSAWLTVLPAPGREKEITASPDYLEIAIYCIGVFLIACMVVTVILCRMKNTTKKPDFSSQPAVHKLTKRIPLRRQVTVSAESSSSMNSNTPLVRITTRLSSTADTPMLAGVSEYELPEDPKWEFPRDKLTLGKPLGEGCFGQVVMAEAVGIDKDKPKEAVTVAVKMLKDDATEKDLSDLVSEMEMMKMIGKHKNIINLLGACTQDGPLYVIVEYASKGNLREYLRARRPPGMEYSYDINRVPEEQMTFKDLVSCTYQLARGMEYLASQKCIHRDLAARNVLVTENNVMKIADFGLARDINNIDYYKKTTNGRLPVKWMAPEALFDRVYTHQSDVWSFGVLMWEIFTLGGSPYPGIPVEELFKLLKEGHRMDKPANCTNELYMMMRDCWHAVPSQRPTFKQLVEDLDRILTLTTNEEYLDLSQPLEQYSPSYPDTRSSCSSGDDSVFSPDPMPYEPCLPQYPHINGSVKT
# For part of these data: This list holds what a sample rich in strong results left over. This is a selection; strong and weak results do not stand in their true shares.
# Legend:
# [1] = target: Casein kinase I isoform gamma-1 (Homo sapiens) (UniProt Q9HCP0); settings: at 1 µM
# [2] = target: T1, Serine/threonine-protein kinase Sgk1 (Homo sapiens) (UniProt O00141); settings: at 10 µM
# T1 sequence (whole entry): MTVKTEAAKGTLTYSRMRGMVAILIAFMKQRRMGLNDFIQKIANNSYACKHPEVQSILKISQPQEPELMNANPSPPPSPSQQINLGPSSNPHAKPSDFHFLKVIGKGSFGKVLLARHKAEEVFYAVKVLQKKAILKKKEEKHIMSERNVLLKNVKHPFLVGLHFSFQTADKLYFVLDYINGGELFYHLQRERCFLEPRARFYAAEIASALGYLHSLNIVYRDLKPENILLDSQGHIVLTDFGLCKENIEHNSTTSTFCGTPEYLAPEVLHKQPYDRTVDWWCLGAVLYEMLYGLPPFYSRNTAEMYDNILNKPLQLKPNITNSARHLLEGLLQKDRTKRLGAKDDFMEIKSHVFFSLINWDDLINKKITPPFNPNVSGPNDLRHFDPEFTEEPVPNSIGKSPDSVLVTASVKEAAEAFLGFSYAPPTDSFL
# [3] = target: Ribosomal protein S6 kinase alpha-4 (Homo sapiens) (UniProt O75676); settings: at 10 µM
# [4] = target: Cyclin-dependent kinase 2/cyclin A (Homo sapiens) (UniProt P24941+P20248+P78396); settings: at 10 µM
# [5] = target: Fibroblast growth factor receptor 2 (Homo sapiens) (UniProt P21802); settings: at 10 µM
# [6] = target: T2, Phosphorylase b kinase gamma catalytic chain, liver/testis isoform (Homo sapiens) (UniProt P15735); settings: at 1 µM
# T2 sequence (whole entry): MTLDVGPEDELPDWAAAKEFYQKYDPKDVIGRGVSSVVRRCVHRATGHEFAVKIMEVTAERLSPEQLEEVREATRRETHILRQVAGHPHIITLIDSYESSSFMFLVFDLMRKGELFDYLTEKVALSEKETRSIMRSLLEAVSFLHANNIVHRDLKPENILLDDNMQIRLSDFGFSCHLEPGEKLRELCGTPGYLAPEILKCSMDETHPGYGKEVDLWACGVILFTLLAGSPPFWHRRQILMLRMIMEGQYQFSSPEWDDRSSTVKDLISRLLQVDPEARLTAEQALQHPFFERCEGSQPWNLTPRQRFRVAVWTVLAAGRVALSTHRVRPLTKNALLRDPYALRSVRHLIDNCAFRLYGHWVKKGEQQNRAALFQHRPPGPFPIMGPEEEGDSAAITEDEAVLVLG
compound,measurement,setting,value
Cc1nc2cc3nc(-c4cccs4)cnc3cc2n1C,residual activity,[1],102%
same,residual activity,[2],109%
same,residual activity,[3],108%
N#C/C(=C(\N)Sc1ccc(N)cc1)c1ccccc1C(F)(F)F,residual activity,[4],81%
same,residual activity,[5],82%
same,residual activity,[6],113%
